For one substance, SI, mean cpm and cpm results are on record in US20110195153A1, “Nutritional Formulation Comprising A Cows Milk Peptide Containing Hydrolysate And Or Peptides Derived Thereof For Tolerance Induction” (MEAD JOHNSON NUTRITION COMPANY, priority 2009, published 2011).

Values joined by “and” are separate entries in the source; they are usually repeats but may differ in a detail not shown here. Equal values may be shown once.

For the assay, the system named is T-cells. As to the kind of experiment: Tolerance induction experiment: T-cell fraction preincubated, combined with APCs and re-stimulated. It is filed as cell-based, human. To be noted: individual KF1, tolerized with UCO (buffer), the substance is the stimulant, first line. The text has this: For the tolerance induction experiment, PBMCs from healthy donors were isolated by Ficoll-density gradient, and the cells were further separated into two fractions. T-cells were enriched with a human Pan-T-cell isolation Kit (Miltenyi, Bergisch Gladbach, Germany), whereas antigen-presenting cells were enriched with human CD3 MicroBeads (Miltenyi, Bergisch Gladbach, Germany) by magnetic cell sorting. The purity of the cell fractions was confirmed by FACS analysis.
The cell fractions containing the T-cells were incubated overnight with different peptides or medium alone at 37° C. with 5% CO2 and 95% humidity, the antigen-presenting-cell fractions were kept overnight at the same conditions without any antigens. On the next day, the T-cell fractions were washed with DPBS (GIBCO) three times and the T-cell and antigen-presenting-cell fractions were combined. The cells (2×10^5 cells per well) were cultured in triplicates in 96-well plates as described above. Cells were stimulated with different concentrations of milk samples, 4U IL-2 per well, or medium alone. The analysis was done as described for the lymphoproliferative assays.
T-cell fractions were preincubated over night with high amounts of Nutramigen™ base (VTP11), extensive casein hydrolysate (VTP15), whole cow's milk whey protein (VTP14), Nutramigen™ (VTP3), synthetic peptides ([…], Phl p 5-Pep 1) or buffer (UCO). On the next day the T-cells and the APCs were combined and stimulated with milk samples (VTP14, VTP1). T cell stimulation is given either in counts per minute (cpm) or as stimulation index (SI).

Turning to “IL-2: 4U IL-2 per well (Roche) served as a positive control”, the SI came out at 0.9 and the mean cpm amounted to 14486 cpm. Further, where the note is “individual experiments”, the cpm was 16371 cpm and 12600 cpm.
